The values below come from US12319655B2, “RAF kinase inhibitors and methods of use thereof” (Deciphera Pharmaceuticals, LLC, priority 2021, dated 2025).

Protein sequences, listed by entry. Tags and fused reporters are not part of them. Lines headed by an entry give the natural chain unless they say otherwise; changes in a name come on top. Chains listed by the source or under a name are the forms on record and can include a tag or linker. Residues count along the entry.
UniProt P10398, 273-606 with tags or gaps Y301D/Y302D limits assumed: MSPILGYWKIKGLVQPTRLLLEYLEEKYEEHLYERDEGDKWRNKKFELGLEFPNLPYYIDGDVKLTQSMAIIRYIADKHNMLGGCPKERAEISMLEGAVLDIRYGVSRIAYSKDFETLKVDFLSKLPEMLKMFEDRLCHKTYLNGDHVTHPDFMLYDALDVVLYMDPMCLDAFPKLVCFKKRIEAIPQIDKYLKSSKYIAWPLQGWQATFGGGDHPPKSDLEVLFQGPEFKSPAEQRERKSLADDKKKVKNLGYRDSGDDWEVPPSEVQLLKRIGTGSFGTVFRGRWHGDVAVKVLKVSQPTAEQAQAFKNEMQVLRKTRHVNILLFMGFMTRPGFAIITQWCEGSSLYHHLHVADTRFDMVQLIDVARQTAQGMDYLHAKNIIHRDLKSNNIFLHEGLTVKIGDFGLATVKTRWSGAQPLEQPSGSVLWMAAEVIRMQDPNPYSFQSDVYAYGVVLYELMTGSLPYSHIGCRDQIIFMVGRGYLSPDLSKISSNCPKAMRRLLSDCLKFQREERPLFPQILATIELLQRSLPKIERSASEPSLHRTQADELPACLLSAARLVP
UniProt P15056, 416-766 limits assumed: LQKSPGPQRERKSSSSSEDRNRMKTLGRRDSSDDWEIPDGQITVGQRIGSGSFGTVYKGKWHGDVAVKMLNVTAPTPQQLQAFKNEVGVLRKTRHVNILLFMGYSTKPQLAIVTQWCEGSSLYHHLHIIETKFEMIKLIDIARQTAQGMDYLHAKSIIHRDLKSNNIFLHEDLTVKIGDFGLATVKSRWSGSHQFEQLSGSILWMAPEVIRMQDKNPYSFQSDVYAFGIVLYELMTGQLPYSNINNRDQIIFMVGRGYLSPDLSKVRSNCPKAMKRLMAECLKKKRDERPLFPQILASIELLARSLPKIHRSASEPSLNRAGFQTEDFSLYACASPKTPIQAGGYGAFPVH
UniProt P15056, 416-766 V600E limits assumed: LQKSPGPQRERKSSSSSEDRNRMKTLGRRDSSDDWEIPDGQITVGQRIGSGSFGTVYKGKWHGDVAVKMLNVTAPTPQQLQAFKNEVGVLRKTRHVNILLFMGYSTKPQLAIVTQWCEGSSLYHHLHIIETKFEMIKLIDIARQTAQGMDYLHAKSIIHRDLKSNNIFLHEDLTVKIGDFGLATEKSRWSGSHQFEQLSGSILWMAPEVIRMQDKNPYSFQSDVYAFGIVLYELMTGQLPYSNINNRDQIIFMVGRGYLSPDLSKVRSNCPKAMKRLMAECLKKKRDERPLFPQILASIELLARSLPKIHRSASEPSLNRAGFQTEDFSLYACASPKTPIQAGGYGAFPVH
UniProt P04049, 307-648 Y340D/Y341D limits assumed: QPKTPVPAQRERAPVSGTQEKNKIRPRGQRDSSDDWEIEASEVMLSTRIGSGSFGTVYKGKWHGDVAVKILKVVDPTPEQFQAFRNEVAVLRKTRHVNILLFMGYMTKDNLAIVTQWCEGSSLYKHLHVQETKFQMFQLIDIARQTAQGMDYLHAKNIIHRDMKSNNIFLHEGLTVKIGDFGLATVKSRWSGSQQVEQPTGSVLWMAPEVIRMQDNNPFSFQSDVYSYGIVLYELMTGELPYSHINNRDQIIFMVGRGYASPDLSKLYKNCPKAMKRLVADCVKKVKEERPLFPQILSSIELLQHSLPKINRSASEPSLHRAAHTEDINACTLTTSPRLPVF

The subject of one test is WM3928 cells. The test can be described thus: WM3928 Cell Proliferation Assay (1). The note with it: read-out: WM3928 (1) IC50. The procedure: WM3928 Cell Proliferation Assay (1)
WM3928 cells (#WM3928-01-0001) are obtained from Rockland Immunochemicals Inc (Gilbertsville, PA). Briefly, cells were grown in MCDB 153 medium (Sigma, #M7403, St. Louis, MO) supplemented with 20% Leibovitz's L-15 (ThermoFisher #11415-064, Waltham, MA), 2% heat inactivated fetal bovine serum (ThermoFisher, #A3840001, Waltham, MA), 5 μg/mL Insulin (Bovine Pancreas) (Sigma, #I0516, St. Louis, MO), 1.68 mM Calcium Chloride (Sigma, #C-34006, St. Louis, MO) and 1% Penicillin/Streptomycin/L-Glutamine (ThermoFisher #10378016, Waltham, MA) at 37° C., 5% CO2, and 95% humidity. Cells are expanded until reaching 70-95% confluency at which point they are subcultured or harvested for assay use. A serial dilution of test compound is dispensed into a 96-well black clear bottom plate in triplicate. Three thousand cells are added per well in 200 μL complete growth medium in the 96-well plate. Plates are incubated for 67-72 hours at 37° C., 5% CO2, and 95% humidity. At the end of the incubation, 40 μL of a 440 μM solution of resazurin (Sigma, #199303, St. Louis, MO) in PBS is added to each well of the plate and plates are incubated for an additional 6-7 hours at 37° C., 5% CO2, and 95% humidity. Plates are read on a Synergy2 or equivalent reader (Biotek, Winooski VT) using an excitation of 540 nm and an emission of 600 nm. Data is analyzed using Prism software (GraphPad, San Diego, CA) to calculate IC50 values.

The test system of another test is H2405 cells. The test can be described thus: H2405 Cell Proliferation Assay (1). Particulars: read-out: H2405 (1) IC50. The procedure: H2405 Cell Proliferation Assay (1)
(§1) H2405 cells (catalog #CRL-5994) are obtained from the American Type Culture Collect (ATTC, Manassas, VA). Briefly, cells were grown in RPMI 1640 supplemented with 5% characterized fetal bovine serum (Invitrogen, Carlsbad, CA) and 1% Penicillin/Streptomycin/L-Glutamine at 37° C., 5% CO2, and 95% humidity. Cells are expanded until reaching 70-95% confluency at which point they are sub-cultured or harvested for assay use. A serial dilution of test compound is dispensed into a 96-well black clear bottom plate in triplicate. Three thousand cells are added per well in 200 μL complete growth medium in the 96-well plate. Plates are incubated for 67-72 h at 37° C., 5% CO2, and 95% humidity. At the end of the incubation, 40 μL of a 440 μM solution of resazurin (Sigma, St. Louis, MO) in PBS is added to each well of the plate and plates are incubated for an additional 5-6 h at 37° C., 5% CO2, and 95% humidity. Plates are read on a Synergy2 or equivalent reader (Biotek, Winooski VT) using an excitation of 540 nm and an emission of 600 nm. Data is analyzed using Prism software (GraphPad, San Diego, CA) to calculate IC50 values.

The next test relates to A375 cells. The experiment in a line: A375 Cell Proliferation Assay (1). Particulars: read-out: A375 (1) IC50. The method, then: For Table J, “+” refers to an IC50 less than or equal to 100 nM; “++” refers to an IC50 greater than 100 nM and less than or equal to 500 nM; “+++” refers to an IC50 greater than 500 nM and less than or equal to 1000 nM; and “++++” refers to an IC50 greater than 1000 nM and less than or equal to 10000 nM. A375 Cell Proliferation Assay (1)
as §1, with “A375 cells” for “H2405 cells”, “(catalog (#CRL-1619)” for “(catalog #CRL-5994)”, “in DMEM High Glucose” for “in RPMI 1640”, “with 10%” for “with 5%”, “triplicate. Two” for “triplicate. Three”, “thousand five hundred” for “thousand”

Test [1] has as its target A-Raf kinase (SEQ. ID No: 1) (Homo sapiens (Human), UniProt P10398, Y301D/Y302D). The experiment in a line: Biochemical Assay for A-Raf (1). Particulars: read-out: ARAF (1) IC50; Table J, assay version (1). The procedure:
Biochemical Assay for A-Raf (1)
Activity of A-Raf kinase (SEQ. ID No: 1) was determined spectroscopically using a coupled pyruvate kinase/lactate dehydrogenase assay that continuously monitors the ATP hydrolysis-dependent oxidation of NADH (e.g., Schindler et al., Science, 2000, 289, 1938-1942). Assays were conducted in 384-well plates (100 μL final volume) using 5.55 nM A-Raf (Sigma), 1.5 units pyruvate kinase, 2.1 units lactate dehydrogenase, 1 mM phosphoenol pyruvate, 0.28 mM NADH, 30.1 nM MEK (SignalChem), and 1 mM ATP in assay buffer (100 mM Tris, pH 7.5, 15 mM MgCl2, 0.5 mM DTT, 0.1% octyl-glucoside, 0.002% (w/v) BSA, and 0.002% Triton X-100). Inhibition of A-Raf was measured by adding serial diluted test compound (final assay concentration of 1% DMSO). A decrease in absorption at 340 nm was monitored continuously for 6 h at 30° C. on a multi-mode microplate reader (BioTek). The reaction rate was calculated using the 4 to 5 h time frame. The reaction rate at each concentration of compound was converted to percent inhibition using controls (i.e., reaction with no test compound and reaction with a known inhibitor) and IC50 values were calculated by fitting a four-parameter sigmoidal curve to the data using Prism (GraphPad software).

The target in test [2] is B-Raf (V600E) (SEQ. ID NO: 4) kinase (Homo sapiens (Human), UniProt P15056, V600E). The experiment in a line: Biochemical Assay for B-Raf (V600E) (1). Particulars: read-out: BRAF VE (1) IC50, Table J, assay version (1). The procedure:
Biochemical Assay for B-Raf (V600E) (1)
Activity of B-Raf (V600E) (SEQ. ID NO: 4) kinase was determined spectroscopically using a coupled pyruvate kinase/lactate dehydrogenase assay that continuously monitors the ATP hydrolysis-dependent oxidation of NADH (e.g., Schindler et al., Science, 2000, 289, 1938-1942). Assays were conducted in 384-well plates (100 μL final volume) using 0.03 nM B-Raf (SignalChem), 1.5 units pyruvate kinase, 2.1 units lactate dehydrogenase, 1 mM phosphoenol pyruvate, 0.28 mM NADH, 30.1 nM MEK (SignalChem), and 1 mM ATP in assay buffer (100 mM Tris, Ph 7.5, 15 mM MgCl2, 0.5 mM DTT, 0.1% octyl-glucoside, 0.002% (w/v) BSA, and 0.002% Triton X-100). Inhibition of B-Raf (V600E) was measured by adding serial diluted test compound (final assay concentration of 1% DMSO). A decrease in absorption at 340 nm was monitored continuously for 6 h at 30° C. on a multi-mode microplate reader (BioTek). The reaction rate was calculated using the 3 to 4 h time frame. The reaction rate at each concentration of compound was converted to percent inhibition using controls (i.e., reaction with no test compound and reaction with a known inhibitor) and IC50 values were calculated by fitting a four-parameter sigmoidal curve to the data using Prism (GraphPad software).

The target in test [3] is B-Raf kinase (SEQ. ID NO: 2) (Homo sapiens (Human), UniProt P15056). The experiment in a line: Biochemical Assay for B-Raf (1). Particulars: read-out: BRAF (1) IC50; Table J, assay version (1). The procedure: Biochemical Assay for B-Raf (1)
(§2) Activity of B-Raf kinase (SEQ. ID NO: 2) was determined spectroscopically using a coupled pyruvate kinase/lactate dehydrogenase assay that continuously monitors the ATP hydrolysis-dependent oxidation of NADH (e.g., Schindler et al., Science, 2000, 289, 1938-1942). Assays were conducted in 384-well plates (100 μL final volume) using 0.13 nM B-Raf (Sigma), 1.5 units pyruvate kinase, 2.1 units lactate dehydrogenase, 1 mM phosphoenol pyruvate, 0.28 mM NADH, 30.1 nM MEK (SignalChem), and 1 mM ATP in assay buffer (100 mM Tris, Ph 7.5, 15 mM MgCl2, 0.5 mM DTT, 0.1% octyl-glucoside, 0.002% (w/v) BSA, and 0.002% Triton X-100). Inhibition of B-Raf was measured by adding serial diluted test compound (final assay concentration of 1% DMSO). A decrease in absorption at 340 nm was monitored continuously for 6 h at 30° C. on a multi-mode microplate reader (BioTek). The reaction rate was calculated using the 4 to 5 h time frame. The reaction rate at each concentration of compound was converted to percent inhibition using controls (i.e., reaction with no test compound and reaction with a known inhibitor) and IC50 values were calculated by fitting a four-parameter sigmoidal curve to the data using Prism (GraphPad software).

Test [4] deals with C-Raf kinase (SEQ. ID NO: 3) (Homo sapiens (Human), UniProt P04049, Y340D/Y341D). The experiment in a line: Biochemical Assay for C-Raf (1). The note with it: read-out: CRAF (1) IC50; Table J, assay version (1). The method, then: Biochemical Assay for C-Raf (1)
as §2, with “of C-Raf” for “of B-Raf”, “NO: 3)” for “NO: 2)”, “using 0.43” for “using 0.13”, “nM C-Raf” for “nM B-Raf”

`Cc1ccc(NC(=O)c2cc(C(F)(F)F)c(=O)n(C)c2)cc1-c1cc(-c2ccnc(NC(=O)C3CC3)c2)cnn1`: the IC50 – broadly, the point on the concentration scale where inhibition reaches its midpoint – in the test with WM3928 cells was in the range of 100 to 500 nM; with H2405 cells, 1000 to 10000 nM; with A375 cells, 1000 to 10000 nM.
Take `Cc1ccc(NC(=O)c2ccnc(C(C)(C)C#N)c2)cc1-c1ccnc(-c2ccnc(NC(=O)CC#N)c2)n1`: the IC50 was < 100 nM with A375 cells; 100 to 500 nM in test [1]; < 100 nM in test [2]; < 100 nM in test [3]; < 100 nM in test [4].
